# Antibody variant affinities, Ab-14 heavy chain, assay B

Target peptide (SARS-CoV-2 spike, HR2 region): PDVDLGDISGINAS

Parent scFv Ab-14: VH joined to VL by a (GGGGS)3 linker. Changes lie in the heavy chain CDRs alone.
VH: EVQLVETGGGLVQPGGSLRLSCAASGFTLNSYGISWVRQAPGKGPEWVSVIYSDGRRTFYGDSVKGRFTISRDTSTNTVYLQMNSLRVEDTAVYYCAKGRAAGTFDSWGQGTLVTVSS
VL: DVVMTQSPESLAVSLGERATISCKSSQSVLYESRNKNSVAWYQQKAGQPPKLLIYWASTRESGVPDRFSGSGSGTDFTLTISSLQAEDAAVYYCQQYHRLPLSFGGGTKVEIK

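The parent was found by panning a naive human phage display library on the peptide. The variants were designed computationally from a first round of random CDR variants and then made and measured. Their group label is 14H_GP_Gibbs (GP: Gaussian process model; Gibbs: Gibbs sampling; a sequence that several methods proposed may carry one label only). Affinity was read by AlphaSeq, a pooled yeast mating assay with surface-displayed partners. After mating in shaken culture at 30 °C for 16 h, diploids were selected and their barcode pairs sequenced. Each replicate has its own calibration line, from reference interactions of the BCL2 family. The assay was run in six technical replicates.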

Variants are written as CDR1, CDR2 and CDR3 of the heavy chain (limits as in the source). Parent: GFTLNSYGIS, VIYSDGRRTFYGDSVK, GRAAGTFDS.
The read-out is the apparent dissociation constant on a log10 scale (nM): the lower, the stronger.
Where no diploid with the target was found in that replicate, the entry reads "ND": below detection, most likely a poor binder, though not proof of it.
The authors averaged sequences with at least three values out of six and counted those with two or fewer as poor binders.
Values of this round are not directly comparable with the first-round values of the same sequences.
The parent sequence was in this pool as ten entries: three were never detected, three once, and four in most replicates, with averages from 0.34 to 2.37.
Empty control strains, which show no peptide, gave a signal in 1% of pairings with all heavy chain designs; the median was 2.08 and 95% of these signals were weaker than 0.84. No background was subtracted. Also given: how often the same scFv was detected with the empty control strains, with their mean in brackets.

CDR-H1	CDR-H2	CDR-H3	log10 Kd (nM) by replicate	empty controls
GFDLNSYGIS	VIYSDGMRTFYVDSVK	GRSAGTFDS	2.18 / 2.58 / 2.33 / 2.32 / 1.86 / 2.64	1/18 (2.66)
GFDLNSYGIS	VIYSDGRRTFYIDNVK	GKAAGTFDS	0.73 / ND / 1.74 / -0.42 / -0.04 / ND	0/18
GFSLNSYGIS	VIYSDGRRTFYHDSVK	GWMAGTFDS	0.63 / 0.49 / 0.55 / 0.31 / 0.34 / 0.11	1/18 (2.13)
GFTLNSYGIS	VIYSDGQRTFYGDSVK	GKTAGTFDK	1.76 / 1.73 / 1.29 / 1.95 / 0.96 / 1.45	1/18 (2.61)
GFTLNEYGIS	VIYSDGKRTFYGDSVK	GRNAGTFDS	0.29 / -0.54 / -0.17 / -0.29 / -0.46 / -0.31	0/18
GFTLDSYGIS	VIYSDGRRTFYGDSVK	GQAAGTFDK	ND / ND / ND / 1.08 / ND / ND	0/18
GFNLNSYGIS	VIYSDGRRTFYGDNVK	GWTAGTFDS	0.25 / 0.44 / 0.63 / 0.26 / 0.50 / 0.67	0/18
HFGLNEYGIS	VIYSDGRRTFYHDSVK	GRTAGTFDS	0.21 / 0.09 / 0.28 / 0.47 / 0.37 / 0.27	0/18
GFSLNSYGIS	VIYSDGRRTFYGDAVK	GRAAGTFDS	0.60 / 0.38 / 0.61 / -0.01 / 0.04 / 0.93	0/18
GFSLNSYGIS	VIYSDGRRTFYSDRVK	GITAGTFDS	0.07 / -0.02 / -0.12 / 0.06 / 0.09 / 0.34	0/18
GFELNSYGIS	VIYSDGRRTFYQDSVK	GQTAGTFDK	0.73 / 0.38 / 0.55 / 0.31 / 0.47 / 0.95	0/18
GFNLNSYGIS	VIYSDGRRTFYGDSVK	GRAAATFDV	ND / ND / ND / 2.17 / ND / ND	0/18
GFTLESYGIS	VIYADGRRTFYGDRVK	GRAAGTFDV	ND / 1.43 / ND / ND / 1.11 / 0.72	0/18
GFDLNSYGIS	VIYSDGRRTFYQDSVK	GEAAGTFDN	ND / ND / ND / ND / ND / ND	0/18
GFELNEYGIS	VIYSDGRRTFYGDAVK	GRNAGTFDS	0.40 / 0.05 / -0.35 / 0.12 / 0.11 / 0.05	0/18
GFDLNSYGIS	VIYSDGRRTFYGDHVK	GRTAGTFDA	0.79 / 0.83 / 0.53 / 0.98 / 0.80 / 0.93	1/18 (2.99)
PFDLNSYGIS	VIYSDGRRTFYQDSVK	GQAAGTFDS	ND / ND / ND / ND / 2.50 / 2.05	0/18
GFVLNSYGIS	VIYSDGRRTFYGDNVK	GQTAGTFDS	1.63 / 2.43 / 1.79 / 0.84 / 1.26 / 2.25	0/18
GFELNNYGIS	VIYSDGRRTFYSDQVK	GQAAGTFDS	0.97 / 0.84 / 0.88 / 0.45 / 0.91 / 0.78	0/18
GFNLNSYGIS	VIYSDGRRTFYLDRVK	GNAAGTFDS	ND / 1.80 / 1.51 / ND / 2.92 / 1.89	0/18
GFELNSYGIS	VIYSDGRRTFYGDQVK	GREAGTFDT	-0.05 / 1.04 / -0.10 / -0.25 / -0.09 / -0.34	0/18
GFTLNSYGIS	VIYSDGRRTFYGDSVK	GQEAGTFDQ	0.43 / 0.71 / 0.99 / 0.21 / 0.82 / 1.18	0/18
GKTLNSYGIS	VIYSDGRRTFYSDSVK	GKEAGTFDT	-0.18 / -0.69 / -0.18 / -0.77 / -0.73 / -0.38	1/18 (1.34)
GFDLNSYGIS	VIYSDGRRTFYDDNVK	GKAAGTFDS	1.24 / 0.79 / 0.73 / 1.31 / 1.98 / 1.06	2/18 (2.38)
GFSLNSYGIS	VIYSDGRRTFYCDSVK	GMTAGTFDS	2.02 / ND / 1.25 / 1.28 / 3.10 / 2.01	0/18
GFDLNSYGIS	VIYSDGRRTFYGDNVK	GRTAGTFDA	0.57 / -0.16 / -0.10 / -0.12 / 0.22 / 0.09	0/18
GFELNSYGIS	VIYSDGRRTFYQDSVK	GQNAGTFDS	1.38 / 0.91 / 1.73 / 1.09 / 1.71 / 1.56	0/18
GFDLNRYGIS	VIYSDGRRTFYGDSVK	GQTAGTFDS	1.05 / 0.26 / 0.38 / -0.26 / 0.14 / 0.75	1/18 (2.17)
GFELNKYGIS	VIYSDGRRTFYGDSVK	GRMAGTFDS	ND / 0.39 / 1.74 / ND / 0.52 / 0.53	0/18
KFDLNSYGIS	VIYSDGKRTFYGDSVK	GRNAGTFDS	ND / -0.98 / ND / ND / -2.46 / ND	0/18
GFNLNSYGIS	VIYSDGRRTFYQDKVK	GRTAGTFDS	0.95 / 1.12 / 1.58 / 0.51 / 1.68 / 1.14	0/18

The last 5 entries again:

CDR-H1	CDR-H2	CDR-H3	log10 Kd (nM) by replicate	empty controls
GFELNSYGIS	VIYSDGRRTFYQDSVK	GQNAGTFDS	1.38 / 0.91 / 1.73 / 1.09 / 1.71 / 1.56	0/18
GFDLNRYGIS	VIYSDGRRTFYGDSVK	GQTAGTFDS	1.05 / 0.26 / 0.38 / -0.26 / 0.14 / 0.75	1/18 (2.17)
GFELNKYGIS	VIYSDGRRTFYGDSVK	GRMAGTFDS	ND / 0.39 / 1.74 / ND / 0.52 / 0.53	0/18
KFDLNSYGIS	VIYSDGKRTFYGDSVK	GRNAGTFDS	ND / -0.98 / ND / ND / -2.46 / ND	0/18
GFNLNSYGIS	VIYSDGRRTFYQDKVK	GRTAGTFDS	0.95 / 1.12 / 1.58 / 0.51 / 1.68 / 1.14	0/18

Data: MIT Lincoln Laboratory AlphaSeq set, Li et al. 2023, doi:10.1038/s41467-023-39022-2, as distributed in FLAb.